Measurements from patent US12065445B2, “CDK2 inhibitors and methods of using the same” (Cedilla Therapeutics, Inc., priority 2021, dated 2024).

Legend:
[1] = biological target: CDK2/Cyclin E1 (Homo sapiens, UniProt P24941); assay: CDK2/Cyclin E1 Caliper Assay (LabChip EZ Reader mobility shift); conditions: read-out: Caliper Assay (CDK2/CCNE1): IC50
Experimental: Inhibition of CDK2/Cyclin E1 activity in the presence of compounds of the present disclosure was evaluated using a Caliper LabChip® EZ Reader mobility shift assay. In the assay, CDK2/Cyclin E1 (Eurofins, 14-475) catalyzed the phosphorylation of a fluorescently tagged peptide 5-FAM-QSPKKG-CONH2 (PerkinElmer, FL Peptide 18) which induced a difference in capillary electrophoresis mobility. The peptide substrate and product were measured, and the conversion ratio was used to determine the inhibition (as % activity and IC50 values) of CDK2/Cyclin E1. Reactions contained 50 mM HEPES pH 7.5, 10 mM MgCl2, 1 mM EDTA, 2 mM DTT, 0.01% Brij35, 0.5 mg/mL BSA, 0.1% DMSO, 2.5 nM CDK2/Cyclin E1, 100 μM ATP, and 1.5 μM fluorescent peptide substrate.
Dose titrations of inhibitors in 100% DMSO were combined with 3.25 nM CDK2/Cyclin E1 and 130 μM of ATP in reaction buffer. The mixtures were incubated for 30 minutes before the addition of fluorescent peptide substrate to initiate the kinase reaction. The final conditions were 2.5 nM CDK2/Cyclin E1, 100 μM ATP, and 1.5 μM fluorescent peptide. The reactions were stopped after 100 minutes with the addition of EDTA (400 mM final EDTA concentration). The stopped reactions were analyzed on a Caliper LabChip® EZ Reader II. The conversion ratios were normalized to yield % activity, plotted against compound concentration, and fit to a four-parameter equation to determine the IC50 for each compound.

[2] = system: Kuramochi cells; assay: BrdU Cell Proliferation Assay; conditions: read-out: BrdU - KURAMOCHI.1: IC50
Experimental: A BrdU assay was used as a measure of proliferation based on the DNA replication process of proliferating cells. BrdU, a pyrimidine analog, is added to the cell culture and incorporated into the DNA of proliferating cells. The presence of the BrdU analog was then measured through a colorimetric ELISA. After fixation and permeabilization of cells, peroxidase-conjugated antibody recognizing BrdU is added and allowed to incubate, followed by thorough washing to remove unbound antibody. In order to quantify the amount of bound antibody, peroxidase substrate is added and produces a color that can be measured at 450 nm.
On day −1, Kuramochi cells (Sekisui XenoTech JCRB0098) were seeded at 2,000 cells/well in columns 2-12 of a 96 well plate (Corning, CLS3596) in 150 μL media and allowed to adhere overnight at 37 degree with 5% CO2.
On day 0, the source plate was prepared by adding 10 mM compounds and performing 3-fold serial dilutions for a 10-point dose response of each compound. Using a multichannel pipette, 2 μL of the contents of the source plate were stamped into an intermediate plate with 500 μL of RPMI 1640 Media, GlutaMAX Supplement (Life Technologies, 61870127) in each well of a Nunc 96 DeepWell™ plate, non-treated 96 DeepWell plate, 2 mL/well, sterile, natural, 60/cs (Sigma Z717274) and mixed thoroughly. 50 μL from each well of this intermediate plate were added to 4 wells of a 96-well plate with previously seeded Kuramochi cells.
On day 4, the plates were developed using the BrdU ELISA Cell Proliferation Assay according to manufacturer's instructions (Roche, 11647229001). Briefly, BrdU was diluted 1:100 in Gibco®, OptiMEM® and 20 μL/well was added, shaken for 10 minutes at 350 rpm, and then returned to the incubator for 1 hour. Following incubation, the medium was discarded, and the cells were fixed by adding 200 μL of Fix/Denature solution. The anti-BrdU peroxidase antibody was diluted 1:1000 in OptiMEM, added at 100 μL/well, and incubated while shaking (350 rpm) for one hour. Three washes with PBS were performed to remove any unbound antibody, followed by the addition of 100 μL of substrate solution to each well. 25 μL/well of 1M sulfuric acid solution was then added to halt the reaction, and plates were read out using an Envision spectrophotometer (Perkin Elmer) set to read 450 nm absorbance. Background absorbance values from empty wells were subtracted from all samples and then normalized to DMSO treated wells.

[3] = system: Kuramochi cells labeled with mApple-H2B; assay: IncuCyte Cell Proliferation Assay; conditions: read-out: IncuCyte Assay: IC50, 72 hours
Experimental: IncuCyte® assay was used to measure the effect of disclosed compounds on cell proliferation. Fluorescent microscopy images of cells were taken immediately after compound treatment and 72 hours later. Image analysis software was used to obtain cell counts as a function of compound concentration. Kuramochi cells labeled with mApple-H2B were seeded on 384-well assay-ready plates. Plates were placed in an IncuCyte® (Sartorius) and scanned at 0 and 72 hours. IncuCyte® software was used to count the number of fluorescent nuclei in each well. The fold change in cell count from 0 to 72 hours in wells treated with increasing compounds concentrations (10 pts, ½ log dilution, 20 μM top concentration) was normalized to DMSO control wells. The normalized cell counts were fit with dose response curves and a […] was calculated.

CNC(=O)[C@@H](NC(=O)[C@H]1CN(C(=O)c2cnn(C)c2)CC12CN(C(=O)CC1CC1)C2)[C@@H](C)OCc1ccccc1
IC50 [1]: > 10 µM | IC50 [2]: > 10 µM

CNC(=O)[C@@H](NC(=O)[C@@H]1CN(C(=O)c2cnn(C)c2)CC12CN(C(=O)CC1CC1)C2)[C@@H](C)OCc1ccccc1
IC50 [1]: > 10 µM | IC50 [2]: > 10 µM

C[C@@H](OCc1ccccc1)[C@H](NC(=O)C1CN(C(=O)c2cnn(Cc3ccccc3)c2)CC12CN(C(=O)[C@H]1CC1(C)C)C2)C(=O)N1CC(C)(C)C1 (stereo partly drawn)
IC50 [1]: 0.01 to 0.1 µM | IC50 [3]: 5 to 20 µM | IC50 [2]: 0.5 to 5 µM

CNC(=O)[C@@H](NC(=O)[C@H]1CN(C(=O)c2cnn(Cc3ccccc3)c2)CC12CN(C(=O)Cc1ccc(OC(C)C)cc1)C2)[C@@H](C)OCc1ccccc1
IC50 [1]: > 10 µM | IC50 [2]: > 10 µM

CNC(=O)[C@@H](NC(=O)[C@@H]1CN(C(=O)c2cnn(Cc3ccccc3)c2)CC12CN(C(=O)CC1CCCCC1)C2)[C@@H](C)OCc1ccccc1
IC50 [1]: > 10 µM | IC50 [2]: > 10 µM

CNC(=O)[C@@H](NC(=O)[C@H]1CN(C(=O)c2cnn(Cc3ccccc3)c2)CC12CN(C(=O)CC1CCCCC1)C2)[C@@H](C)OCc1ccccc1
IC50 [1]: > 10 µM | IC50 [2]: > 10 µM

CNC(=O)[C@@H](NC(=O)[C@@H]1CN(C(=O)c2cnn(Cc3ccccc3)c2)CC12CN(C(=O)Cc1ccc(OC(C)C)cc1)C2)[C@@H](C)OCc1ccccc1
IC50 [1]: > 10 µM | IC50 [2]: > 10 µM
